IC50 data for 2 compounds are collected here from ChEMBL document CHEMBL2062364, “Discovery and optimization of new benzimidazole- and benzoxazole-pyrimidone selective PI3Kβ inhibitors for the treatment of phosphatase and TENsin homologue (PTEN)-deficient cancers” (J Med Chem, 2012).

Chains of the proteins cited; added tags and fusions are not shown. Lines headed by an entry give the natural chain unless they say otherwise; changes in a name come on top.
UniProt P42338: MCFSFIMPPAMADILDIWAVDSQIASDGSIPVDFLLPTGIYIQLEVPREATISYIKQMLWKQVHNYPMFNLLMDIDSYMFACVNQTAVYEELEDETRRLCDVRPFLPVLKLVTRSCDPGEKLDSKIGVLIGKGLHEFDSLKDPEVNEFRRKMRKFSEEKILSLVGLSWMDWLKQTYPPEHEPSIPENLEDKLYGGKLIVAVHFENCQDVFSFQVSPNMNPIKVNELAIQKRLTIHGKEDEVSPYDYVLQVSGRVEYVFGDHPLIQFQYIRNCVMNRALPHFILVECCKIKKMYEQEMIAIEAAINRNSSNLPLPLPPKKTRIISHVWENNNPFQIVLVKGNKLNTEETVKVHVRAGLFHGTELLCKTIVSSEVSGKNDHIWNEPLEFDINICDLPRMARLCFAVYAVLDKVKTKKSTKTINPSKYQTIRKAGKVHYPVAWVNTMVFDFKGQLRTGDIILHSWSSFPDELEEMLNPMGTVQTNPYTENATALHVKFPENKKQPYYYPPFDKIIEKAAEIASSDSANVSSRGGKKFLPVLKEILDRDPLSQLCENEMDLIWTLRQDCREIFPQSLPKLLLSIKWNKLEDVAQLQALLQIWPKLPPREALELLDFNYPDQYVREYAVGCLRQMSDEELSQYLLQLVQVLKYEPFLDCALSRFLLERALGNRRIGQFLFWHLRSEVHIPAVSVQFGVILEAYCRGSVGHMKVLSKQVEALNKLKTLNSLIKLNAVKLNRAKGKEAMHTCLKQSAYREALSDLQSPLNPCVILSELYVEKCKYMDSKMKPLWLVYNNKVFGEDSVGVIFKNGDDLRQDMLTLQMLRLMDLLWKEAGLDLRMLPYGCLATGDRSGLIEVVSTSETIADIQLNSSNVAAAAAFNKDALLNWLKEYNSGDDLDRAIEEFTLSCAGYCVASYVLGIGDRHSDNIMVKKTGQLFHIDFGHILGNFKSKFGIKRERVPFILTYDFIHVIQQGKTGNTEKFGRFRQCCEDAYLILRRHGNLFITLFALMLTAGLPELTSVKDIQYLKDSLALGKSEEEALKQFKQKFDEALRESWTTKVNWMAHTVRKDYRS

Assay [1] has as its target T1, Phosphatidylinositol 4,5-bisphosphate 3-kinase catalytic subunit beta isoform (Homo sapiens, UniProt P42338). Description: Inhibition of N-terminus poly-His tagged human PI3Kbeta expressed in baculovirus infected insect […] cells coexpressing p85alpha using PI(4,5)P2 as substrate preincubated with compound for 15 mins measured after 10 mins by HTRF assay. On the technique in general: Time-resolved FRET reads energy transfer from a long-lived donor to a nearby acceptor.

Assay [2] addresses T1, Phosphatidylinositol 4,5-bisphosphate 3-kinase catalytic subunit beta isoform. Put plainly: Inhibition of human PI3Kbeta-mediated Akt phosphorylation at T308 residue expressed in PTEN-deficient human PC3 cells after 2 hrs by Western blot analysis. The class given is cell-based, PC-3. For orientation: A western blot detects proteins with antibodies after separation by electrophoresis.

Assay [3] addresses T2, Phosphatidylinositol 4,5-bisphosphate 3-kinase catalytic subunit delta isoform (Homo sapiens, UniProt O00329).
T2 sequence (O00329 whole entry): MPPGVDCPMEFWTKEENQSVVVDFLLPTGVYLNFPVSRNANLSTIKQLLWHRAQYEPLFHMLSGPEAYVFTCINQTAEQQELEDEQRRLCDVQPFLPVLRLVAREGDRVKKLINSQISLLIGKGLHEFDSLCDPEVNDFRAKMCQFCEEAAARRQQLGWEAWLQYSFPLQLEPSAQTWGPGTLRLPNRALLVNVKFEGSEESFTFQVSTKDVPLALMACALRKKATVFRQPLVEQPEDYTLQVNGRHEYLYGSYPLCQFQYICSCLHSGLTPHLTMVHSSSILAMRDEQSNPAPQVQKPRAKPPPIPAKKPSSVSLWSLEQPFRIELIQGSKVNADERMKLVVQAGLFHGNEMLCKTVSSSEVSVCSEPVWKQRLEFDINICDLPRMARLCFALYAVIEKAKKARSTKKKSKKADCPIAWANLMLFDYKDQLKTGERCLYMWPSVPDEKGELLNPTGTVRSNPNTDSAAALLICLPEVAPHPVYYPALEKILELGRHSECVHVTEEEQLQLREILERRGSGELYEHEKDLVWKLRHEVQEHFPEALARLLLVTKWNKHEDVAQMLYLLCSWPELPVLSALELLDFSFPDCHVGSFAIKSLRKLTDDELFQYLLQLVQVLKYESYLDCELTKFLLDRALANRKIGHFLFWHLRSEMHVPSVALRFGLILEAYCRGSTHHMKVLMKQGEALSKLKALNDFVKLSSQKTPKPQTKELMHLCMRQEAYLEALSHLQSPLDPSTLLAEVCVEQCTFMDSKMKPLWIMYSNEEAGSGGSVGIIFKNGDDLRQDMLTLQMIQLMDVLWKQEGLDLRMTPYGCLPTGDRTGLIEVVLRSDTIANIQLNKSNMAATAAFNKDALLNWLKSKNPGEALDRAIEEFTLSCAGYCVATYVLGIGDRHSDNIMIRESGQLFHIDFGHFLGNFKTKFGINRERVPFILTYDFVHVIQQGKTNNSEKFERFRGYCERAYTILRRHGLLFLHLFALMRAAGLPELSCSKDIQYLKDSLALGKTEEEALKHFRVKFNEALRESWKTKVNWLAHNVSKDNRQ
Put plainly: Inhibition of poly-His tagged human PI3Kdelta expressed in baculovirus infected insect sf9 cells coexpressing p85alpha using PI(4,5)P2 as substrate preincubated with compound for 15 mins measured after 10 mins by HTRF assay.

Molecules are shown by their SMILES.

The term IC50 denotes the concentration that gives 50% inhibition. For the compound `Cc1cc(C(C)Nc2ccccc2)c2nc(N3CCOCC3)cc(=O)n2c1` (stereo not drawn), the IC50 in assay [1] is 0.03 µM; in assay [2], 0.003 µM.
Consider `Cn1c(Cc2nc(N3CCOCC3)cc(=O)[nH]2)nc2ccccc21`, for which, in assay [3], the IC50 amounted to 1.39 µM.
